In EP0603412A1, “COMPOUNDS BASED ON PALLADIUM AND ON DERIVATIVES OF AROMATIC AMINES AND METHOD OF OBTAINING THEM” (priority 1992, dated 1993):

Test system: male hybrid mice F₁(CBAxC₅₇BL)
Assay: Radiomodifying effect under single total γ-irradiation (survival, LD50/8, LD50/30, DCF)
Assay type: in vivo
Procedure: About two thousands animals have been used in tests.
Before irradiation control group of animals was intravenously administered isotonic saline solution in amount of 0.3 ml per mouse.
The mice were placed into the glass containers inserted into irradiation zone. The radiation sources were arranged in the form of "squirrel cage". The radiation doses were established by duration of the stay in active zone. […] The animals were irradiated in the range from 4.0 to 10 Gr.
A survival rate was determined on the 8th and 30th day of observation. From the data obtained were derived the curves illustrating a dependence of the survival rate upon a radiation dosage on a percentage basis. LD50/8 and LD50/30 values were estimated by extrapolation to the dosage scale.
A radiomodifying effect was evaluated by a dose change factor (DCF) calculated from the ratio of LD₅₀ in test to LD₅₀ in control.

N-methyl-N-(1-phenyl-1-hydroxy-prop-2-yl)ammonium palladium tetrachloride [Ephazole]
radiomodifying influence (administering 4 hours before irradiation): freedom from radiomodifying influence
radiomodifying effect (within 6 hours after irradiation): full absence
